Experimental data reported in paper PMC5197073 (Theranostics, 2017).

Test system: VEGFR2
Experiment: VEGFR2 expression in C26 tumors
Assay type: in vivo, mouse
Details: C26 model, 100 mg/kg p.o. for two weeks; P=0.0353

**Q.** How did the VEGFR2 expression turn out when CCN(CC)CCNC(=O)c1c(C)[nH]c(/C=C2\C(=O)Nc3ccc(F)cc32)c1C [sunitinib] was run?
**A.** suppressed
